{"source": "patent US20210322301A1", "about": "“DOSING REGIMENS FOR TREATING METAL-MEDIATED CONDITIONS” (Abfero Pharmaceuticals, Inc., priority 2016, published 2021)", "key": {"[1]": {"test": "10-parameter urine dipstick analysis (glucosuria, hematuria, pH, specific gravity) after oral SP-420"}, "[2]": {"tested_on": "kidney injury molecule-1 (KIM-1)"}, "[3]": {"details": "for Weight Change (%): baseline vs day of last dose; for Deaths @ Cumulative Dose (mg/kg) / Survival: oral gavage"}, "[4]": {"details": "200 mg/kg SID, max cumulative dose 2400 mg/kg, n=5"}, "[5]": {"details": "250 mg/kg EOD, max cumulative dose 2500 mg/kg, n=5"}, "[6]": {"details": "250 mg/kg SID, max cumulative dose 2500 mg/kg, n=5"}, "[7]": {"details": "325 mg/kg EOD, max cumulative dose 2600 mg/kg, n=10"}, "[8]": {"details": "400 mg/kg EOD, max cumulative dose 2400 mg/kg, n=5"}, "[9]": {"details": "500 mg/kg EOD, max cumulative dose 2500 mg/kg, n=5"}, "[10]": {"details": "Example 2, recovery period, both groups"}}, "note": "Where two headings read alike, the source gives them in different places."}
{"smiles": "COCCOCCOc1ccc(C2=N[C@@](C)(C(=O)O)CS2)c(O)c1", "note": "[SP-420, (S)-4,5-dihydro-2-[2-hydroxy-4-(3,6-dioxaheptyloxy)phenyl]-4-methyl-4-thiazolecarboxylic acid]", "values": [{"measurement": "Urine Dipstick: Glucosuria (rats affected)", "setting": "[1]; [4]", "result": "3/5"}, {"measurement": "Urine Dipstick: Hematuria (Frank) (rats affected)", "setting": "[1]; [4]", "result": "2/5"}, {"measurement": "Urine Dipstick: Specific gravity ≥1.030 (rats affected)", "setting": "[1]; [4]", "result": "3/5"}, {"measurement": "Urine Dipstick: pH ≤5 (rats affected)", "setting": "[1]; [4]", "result": "4/5"}, {"measurement": "Urine Dipstick: Glucosuria (rats affected)", "setting": "[1]; [5]", "result": "0/5"}, {"measurement": "Urine Dipstick: Hematuria (Frank) (rats affected)", "setting": "[1]; [5]", "result": "0/5"}, {"measurement": "Urine Dipstick: Specific gravity ≥1.030 (rats affected)", "setting": "[1]; [5]", "result": "0/5"}, {"measurement": "Urine Dipstick: pH ≤5 (rats affected)", "setting": "[1]; [5]", "result": "0/5"}, {"measurement": "Urine Dipstick: Glucosuria (rats affected)", "setting": "[1]; [6]", "result": "4/5"}, {"measurement": "Urine Dipstick: Hematuria (Frank) (rats affected)", "setting": "[1]; [6]", "result": "1/5"}, {"measurement": "Urine Dipstick: Specific gravity ≥1.030 (rats affected)", "setting": "[1]; [6]", "result": "2/5"}, {"measurement": "Urine Dipstick: pH ≤5 (rats affected)", "setting": "[1]; [6]", "result": "3/5"}, {"measurement": "Urine Dipstick: Glucosuria (rats affected)", "setting": "[1]; [7]", "result": "0/10"}, {"measurement": "Urine Dipstick: Hematuria (Frank) (rats affected)", "setting": "[1]; [7]", "result": "0/10"}, {"measurement": "Urine Dipstick: Specific gravity ≥1.030 (rats affected)", "setting": "[1]; [7]", "result": "2/10"}, {"measurement": "Urine Dipstick: pH ≤5 (rats affected)", "setting": "[1]; [7]", "result": "0/10"}, {"measurement": "Urine Dipstick: Glucosuria (rats affected)", "setting": "[1]; [8]", "result": "1/5"}, {"measurement": "Urine Dipstick: Hematuria (Frank) (rats affected)", "setting": "[1]; [8]", "result": "0/5"}, {"measurement": "Urine Dipstick: Specific gravity ≥1.030 (rats affected)", "setting": "[1]; [8]", "result": "1/5"}, {"measurement": "Urine Dipstick: pH ≤5 (rats affected)", "setting": "[1]; [8]", "result": "2/5"}, {"measurement": "Urine Dipstick: Glucosuria (rats affected)", "setting": "[1]; [9]", "result": "1/5"}, {"measurement": "Urine Dipstick: Hematuria (Frank) (rats affected)", "setting": "[1]; [9]", "result": "1/5"}, {"measurement": "Urine Dipstick: Specific gravity ≥1.030 (rats affected)", "setting": "[1]; [9]", "result": "1/5"}, {"measurement": "Urine Dipstick: pH ≤5 (rats affected)", "setting": "[1]; [9]", "result": "2/5"}, {"measurement": "Glucosuria (rats affected)", "setting": "[1]; Example 1, 325 mg/kg EOD, n=5", "result": "none"}, {"measurement": "KIM-1 ≥250 ng/kg/24 h (rats affected)", "setting": "[2]; [4]", "result": "5/5"}, {"measurement": "KIM-1 ≥500 ng/kg/24 h (rats affected)", "setting": "[2]; [4]", "result": "5/5"}, {"measurement": "KIM-1 ≥1000 ng/kg/24 h (rats affected)", "setting": "[2]; [4]", "result": "5/5"}, {"measurement": "KIM-1 ≥2000 ng/kg/24 h (rats affected)", "setting": "[2]; [4]", "result": "1/5"}, {"measurement": "KIM-1 ≥250 ng/kg/24 h (rats affected)", "setting": "[2]; [5]", "result": "0/5"}, {"measurement": "KIM-1 ≥500 ng/kg/24 h (rats affected)", "setting": "[2]; [5]", "result": "0/5"}, {"measurement": "KIM-1 ≥1000 ng/kg/24 h (rats affected)", "setting": "[2]; [5]", "result": "0/5"}, {"measurement": "KIM-1 ≥2000 ng/kg/24 h (rats affected)", "setting": "[2]; [5]", "result": "0/5"}, {"measurement": "KIM-1 ≥250 ng/kg/24 h (rats affected)", "setting": "[2]; [6]", "result": "5/5"}, {"measurement": "KIM-1 ≥500 ng/kg/24 h (rats affected)", "setting": "[2]; [6]", "result": "5/5"}, {"measurement": "KIM-1 ≥1000 ng/kg/24 h (rats affected)", "setting": "[2]; [6]", "result": "3/5"}, {"measurement": "KIM-1 ≥2000 ng/kg/24 h (rats affected)", "setting": "[2]; [6]", "result": "0/5"}, {"measurement": "KIM-1 ≥250 ng/kg/24 h (rats affected)", "setting": "[2]; [7]", "result": "9/10"}, {"measurement": "KIM-1 ≥500 ng/kg/24 h (rats affected)", "setting": "[2]; [7]", "result": "4/10"}, {"measurement": "KIM-1 ≥1000 ng/kg/24 h (rats affected)", "setting": "[2]; [7]", "result": "3/10"}, {"measurement": "KIM-1 ≥2000 ng/kg/24 h (rats affected)", "setting": "[2]; [7]", "result": "1/10"}, {"measurement": "KIM-1 ≥250 ng/kg/24 h (rats affected)", "setting": "[2]; [8]", "result": "4/5"}, {"measurement": "KIM-1 ≥500 ng/kg/24 h (rats affected)", "setting": "[2]; [8]", "result": "2/5"}, {"measurement": "KIM-1 ≥1000 ng/kg/24 h (rats affected)", "setting": "[2]; [8]", "result": "2/5"}, {"measurement": "KIM-1 ≥2000 ng/kg/24 h (rats affected)", "setting": "[2]; [8]", "result": "1/5"}, {"measurement": "KIM-1 ≥250 ng/kg/24 h (rats affected)", "setting": "[2]; [9]", "result": "4/5"}, {"measurement": "KIM-1 ≥500 ng/kg/24 h (rats affected)", "setting": "[2]; [9]", "result": "2/5"}, {"measurement": "KIM-1 ≥1000 ng/kg/24 h (rats affected)", "setting": "[2]; [9]", "result": "1/5"}, {"measurement": "KIM-1 ≥2000 ng/kg/24 h (rats affected)", "setting": "[2]; [9]", "result": "0/5"}, {"measurement": "Changes in KIM-1 levels post-drug (recovery)", "setting": "[2]; Example 1, 5 or 6 days post-drug", "result": "largely returned to baseline levels"}, {"measurement": "KIM-1 levels on the off day (24-48 hours post drug)", "setting": "[2]; Example 2, 325 mg/kg EOD", "result": "did not decrease"}, {"measurement": "KIM-1 strips, T line (FIG. 2)", "setting": "[2]; Example 2, 325 mg/kg EOD, cumulative dose 2600 mg/kg, strips 6-10", "result": "very little KIM-1 was observed in any of strips 6-10 except strip 7"}, {"measurement": "Average KIM-1 levels after end of dosing (FIG. 5)", "setting": "[2]; [10]", "result": "returned to near baseline levels very quickly"}, {"measurement": "KIM-1 levels after end of dosing, representative rats (FIG. 1A-1B)", "setting": "[2]; [10]", "result": "returned to near baseline levels very quickly"}, {"measurement": "Glucosuria and KIM-1 levels, EOD regimens compared to SID regimens", "setting": "[2]; same cumulative dose, Table 1 summary", "result": "consistenly lower"}, {"measurement": "Weight Change (%)", "setting": "[3]; [4]", "result": "−4.9", "unit": "%"}, {"measurement": "Weight Change (%)", "setting": "[3]; [5]", "result": "+8.5%"}, {"measurement": "Deaths @ Cumulative Dose (mg/kg)", "setting": "[3]; [5]", "result": "Survived"}, {"measurement": "Weight Change (%)", "setting": "[3]; [6]", "result": "−5.2", "unit": "%"}, {"measurement": "Survival", "setting": "[3]; [6]", "result": "2/5"}, {"measurement": "Weight Change (%)", "setting": "[3]; [7]", "result": "+0.8%"}, {"measurement": "Deaths @ Cumulative Dose (mg/kg)", "setting": "[3]; [7]", "result": "Survived"}, {"measurement": "Survival", "setting": "[3]; [7]", "result": "10/10"}, {"measurement": "Weight Change (%)", "setting": "[3]; [8]", "result": "−2.8", "unit": "%"}, {"measurement": "Weight Change (%)", "setting": "[3]; [9]", "result": "−5.2", "unit": "%"}, {"measurement": "Survival of exposure to the drug", "setting": "[3]; Example 1, 162.5 mg/kg SID and 325 mg/kg EOD groups, cumulative 2600 mg/kg, n=5 per group", "result": "All of the SID and EOD-treated rats survived"}, {"measurement": "Rats euthanized post-last dose (weight loss, deteriorating condition)", "setting": "[3]; Example 2, 162.5 mg/kg SID", "result": "One rat from the 162.5 mg/kg SID group was euthanized 4 days post-last dose"}]}
